For 1 molecule, IC50 results are on record in patent US8871751B2, “Compositions and methods relating to nuclear hormone and steroid hormone receptors including inhibitors of estrogen receptor alpha-mediated gene expression and inhibition of breast cancer” (The Board of Trustees of the University of Illinois, priority 2008, dated 2014).

Sequences of proteins named here, by UniProt entry; tags and fusion partners are left off.
UniProt P03372, whole entry: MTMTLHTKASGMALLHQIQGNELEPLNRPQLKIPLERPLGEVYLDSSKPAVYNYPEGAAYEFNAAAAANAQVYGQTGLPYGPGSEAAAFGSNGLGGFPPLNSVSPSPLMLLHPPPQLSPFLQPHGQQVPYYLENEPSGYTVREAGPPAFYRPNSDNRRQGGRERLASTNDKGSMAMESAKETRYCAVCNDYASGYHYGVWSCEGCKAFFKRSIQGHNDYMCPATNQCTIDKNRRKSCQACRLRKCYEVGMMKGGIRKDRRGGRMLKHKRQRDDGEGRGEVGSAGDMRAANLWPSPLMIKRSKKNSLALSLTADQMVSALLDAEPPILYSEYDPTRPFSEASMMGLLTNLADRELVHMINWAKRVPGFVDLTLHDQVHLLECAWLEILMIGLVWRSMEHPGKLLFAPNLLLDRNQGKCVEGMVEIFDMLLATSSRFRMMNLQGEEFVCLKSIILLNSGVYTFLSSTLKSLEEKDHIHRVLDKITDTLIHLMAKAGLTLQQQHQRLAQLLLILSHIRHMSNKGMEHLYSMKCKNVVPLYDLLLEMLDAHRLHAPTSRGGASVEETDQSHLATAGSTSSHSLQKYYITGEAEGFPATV
UniProt P10275, whole entry: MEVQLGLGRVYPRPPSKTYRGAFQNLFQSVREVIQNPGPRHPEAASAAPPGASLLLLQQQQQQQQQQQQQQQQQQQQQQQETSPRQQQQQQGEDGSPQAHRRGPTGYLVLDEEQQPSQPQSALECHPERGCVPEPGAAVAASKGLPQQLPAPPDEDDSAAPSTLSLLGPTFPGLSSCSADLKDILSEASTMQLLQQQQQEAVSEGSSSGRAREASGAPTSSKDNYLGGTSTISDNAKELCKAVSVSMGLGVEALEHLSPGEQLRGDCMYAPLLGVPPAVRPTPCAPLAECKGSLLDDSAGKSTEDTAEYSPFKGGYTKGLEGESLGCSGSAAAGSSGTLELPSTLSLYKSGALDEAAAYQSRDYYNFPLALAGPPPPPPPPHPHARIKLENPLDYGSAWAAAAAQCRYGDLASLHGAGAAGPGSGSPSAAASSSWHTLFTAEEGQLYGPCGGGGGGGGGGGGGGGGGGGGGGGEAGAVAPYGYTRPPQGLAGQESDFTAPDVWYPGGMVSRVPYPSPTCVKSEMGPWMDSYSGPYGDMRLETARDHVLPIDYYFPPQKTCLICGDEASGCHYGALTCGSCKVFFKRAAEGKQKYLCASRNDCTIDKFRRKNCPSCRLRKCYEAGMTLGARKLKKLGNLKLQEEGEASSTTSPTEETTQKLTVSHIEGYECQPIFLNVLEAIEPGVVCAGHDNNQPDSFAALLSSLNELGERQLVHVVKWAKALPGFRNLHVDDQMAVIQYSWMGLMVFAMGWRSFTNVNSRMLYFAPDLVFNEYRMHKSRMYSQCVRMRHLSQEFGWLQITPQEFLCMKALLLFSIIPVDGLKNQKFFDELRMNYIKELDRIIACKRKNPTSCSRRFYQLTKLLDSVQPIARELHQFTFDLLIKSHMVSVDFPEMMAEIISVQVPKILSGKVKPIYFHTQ
UniProt P06401, whole entry: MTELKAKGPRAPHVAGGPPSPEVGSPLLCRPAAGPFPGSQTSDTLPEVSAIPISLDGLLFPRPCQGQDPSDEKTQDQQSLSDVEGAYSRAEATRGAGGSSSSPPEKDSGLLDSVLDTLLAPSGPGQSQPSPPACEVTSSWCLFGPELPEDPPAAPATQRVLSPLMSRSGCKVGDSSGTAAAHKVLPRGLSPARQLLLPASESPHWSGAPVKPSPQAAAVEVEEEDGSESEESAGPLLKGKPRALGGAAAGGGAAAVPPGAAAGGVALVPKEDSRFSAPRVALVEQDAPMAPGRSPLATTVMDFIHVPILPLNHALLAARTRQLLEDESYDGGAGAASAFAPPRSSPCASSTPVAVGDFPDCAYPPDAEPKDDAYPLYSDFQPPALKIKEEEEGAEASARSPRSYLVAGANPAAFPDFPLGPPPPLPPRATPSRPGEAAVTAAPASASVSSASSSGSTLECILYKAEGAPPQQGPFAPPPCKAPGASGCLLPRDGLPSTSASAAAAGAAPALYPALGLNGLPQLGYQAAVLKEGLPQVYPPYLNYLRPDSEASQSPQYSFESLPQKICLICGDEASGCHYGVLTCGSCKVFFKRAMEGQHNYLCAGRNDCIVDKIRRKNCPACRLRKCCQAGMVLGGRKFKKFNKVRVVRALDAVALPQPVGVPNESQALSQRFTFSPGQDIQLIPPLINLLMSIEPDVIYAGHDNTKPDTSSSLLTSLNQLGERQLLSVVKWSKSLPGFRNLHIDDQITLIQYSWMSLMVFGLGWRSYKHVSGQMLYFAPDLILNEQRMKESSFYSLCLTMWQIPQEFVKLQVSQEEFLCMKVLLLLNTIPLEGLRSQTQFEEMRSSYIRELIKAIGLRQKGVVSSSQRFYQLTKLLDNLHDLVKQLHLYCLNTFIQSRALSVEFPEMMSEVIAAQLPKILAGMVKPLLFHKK

For assay [1], the target named is human ERα binding to flcERE (Homo sapiens, UniProt P03372). Kind of assay: FAMA: inhibition of ERα binding to flcERE. To be noted: read-out: IC50 ERα, binding to HRE, 5 concentrations 0.5-10 μM, sequential method.
The target of assay [2] is human androgen receptor (AR) binding to flARE (Homo sapiens, UniProt P10275). Kind of assay: FAMA: inhibition of AR binding to flcARE. To be noted: read-out: IC50 AR, binding to HRE, 5 concentrations 0.5-10 μM, sequential method.
Assay [3] concerns the target human PR-B binding to flPRE (Homo sapiens, UniProt P06401). Kind of assay: FAMA: inhibition of PR binding to flcPRE. To be noted: read-out: IC50 PR, binding to HRE, 5 concentrations 0.5-10 μM, sequential method.

pIC50: −log10 of the molar value. A value given as a limit tells only on which side of the number the result lay.

As for `CC(C)(C)c1cc2c(O)c(c1)Cc1cc(C(C)(C)C)cc(c1O)Cc1cc(C(C)(C)C)cc(c1O)Cc1cc(C(C)(C)C)cc(c1O)Cc1cc(C(C)(C)C)cc(c1O)Cc1cc(C(C)(C)C)cc(c1O)Cc1cc(C(C)(C)C)cc(c1O)Cc1cc(C(C)(C)C)cc(c1O)C2`, the figures for the pIC50 in assay [1], in assay [2] and in assay [3] were 5.70, under 5.00 and under 5.00, respectively.
